For assay [1], the target named is human myosin‐5A HMM‐like construct with calmodulin (human) (UniProt P0DP23).
Assay [2] addresses human cytoskeletal β‐actin variant p.R196C (human) (UniProt P60709).
In assay [3] the target is human cytoskeletal β‐actin wild‐type (human) (UniProt P60709).
The target of assay [4] is human cytoskeletal β‐actin variant p.R196S (human) (UniProt P60709).
The target in assay [5] is human cytoskeletal β‐actin variant p.R196H (human) (UniProt P60709).

On to “human cytoskeletal β‐actin wild‐type (from UniProt P60709 1-375) (natural protein)”, for which, in assay [1], the average sliding velocity of TRITC phalloidin‐labelled filaments on surface‐immobilized Myo5A‐HMM, unloaded in vitro motility assay, 37 °C was determined as 352 nm/s.
As for “human Arp2/3 complex (from UniProt P61160 1-394; P61158 1-418; O15143 1-372; O15144 1-300; O15145 1-178; P59998 1-168; O15511 1-151)”, the bulk‐polymerization rate k obs of 2 μM pyrene actin with 5 to 40 nM Arp2/3 (+200 nM GST‐N‐WASP‐VCA) came to 1.63 s⁻¹ in assay [2], 2.75 s⁻¹ in assay [3], 1.4 s⁻¹ in assay [4] and 0.411 s⁻¹ in assay [5]. The lag‐time t lag of 2 μM pyrene actin with 5 to 40 nM Arp2/3 (+200 nM GST‐N‐WASP‐VCA); falls with rising Arp2/3 in assay [2] came to 81 s; in assay [3] it was 29 s; in assay [4], 113 s; in assay [5] it was 332 s.
As to “human cytoskeletal β‐actin variant p.R196H (from UniProt P60709 1-375) (natural protein)”, in assay [1], the average sliding velocity of TRITC phalloidin‐labelled filaments on surface‐immobilized Myo5A‐HMM, unloaded in vitro motility assay, 37 °C came out at 457 nm/s.
